Measurements reported in ChEMBL document CHEMBL4257453, “Identification of karanjin isolated from the Indian beech tree as a potent CYP1 enzyme inhibitor with cellular efficacy via screening of a natural product repository” (Medchemcomm, 2018).

Sequences of proteins named here, by UniProt entry; tags and fusion partners are left off.
UniProt P05177, whole entry: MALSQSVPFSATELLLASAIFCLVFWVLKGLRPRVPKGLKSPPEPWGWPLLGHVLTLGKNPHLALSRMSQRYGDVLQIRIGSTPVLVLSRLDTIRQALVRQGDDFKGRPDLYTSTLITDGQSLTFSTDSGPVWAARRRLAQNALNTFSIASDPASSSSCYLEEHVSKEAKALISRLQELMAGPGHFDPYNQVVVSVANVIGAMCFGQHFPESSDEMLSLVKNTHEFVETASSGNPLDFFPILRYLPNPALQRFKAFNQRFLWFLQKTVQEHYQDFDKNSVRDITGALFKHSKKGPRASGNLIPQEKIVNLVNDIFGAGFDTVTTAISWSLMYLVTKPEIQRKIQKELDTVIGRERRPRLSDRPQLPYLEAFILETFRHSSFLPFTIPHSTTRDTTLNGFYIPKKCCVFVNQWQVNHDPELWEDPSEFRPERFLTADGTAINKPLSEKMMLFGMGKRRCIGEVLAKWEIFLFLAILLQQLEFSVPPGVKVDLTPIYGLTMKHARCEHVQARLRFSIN

Biological target: CYP1A2 (Homo sapiens, UniProt P05177)
Test: Inhibition of recombinant human CYP1A2 expressed in baker's yeast-derived microsomes (Sacchrosomes) at 10 uM using 3-cyano-7-ethoxycoumarin substrate by EROD assay relative to control
Format: ADME
Details: probe 3-cyano-7-ethoxycoumarin
Outline: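 Yeast microsomes carrying recombinant CYP (Sacchrosomes). […] Substrates per isoform are 7-ethoxyresorufin, 3-cyano-7-ethoxycoumarin, EOMCC or dibenzylfluorescein, read as endpoint fluorescence. Background from compound-only wells without enzyme is subtracted. Independent triplicate runs; α-naphthoflavone positive control.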

- inhibition at 10 µM: 95%
Compound: O=c1cc(-c2ccccc2)oc2c1ccc1ccccc12 [ALPHA-NAPHTHOFLAVONE]
